According to publication PMC4219730, “Meningiomas: A Comparative Study of ^68Ga-DOTATOC, ^68Ga-DOTANOC and ^68Ga-DOTATATE for Molecular Imaging in Mice” (PLoS ONE, 2014):

Experiments:
[1] = system: xenografts of a human meningioma cell line (CH-157MN); test: Static PET/CT study: SUVmax and SUV ratios in mice bearing meningioma xenografts; format: in vivo, NUDE NU/NU mice; details: comparison between radiotracers
Method: (§1) Animals were scanned on a small-animal PET scanner (ARGUS PET-CT, SEDECAL, Madrid, Spain) under anesthesia (isoflurane, 3% induction and 1.5% maintenance in 100% O2). Imaging was performed 7–28 days after tumor cell inoculation. Animals were imaged over four consecutive weeks (at days 7, 14, 21 & 28 after cell inoculation) with one radiotracer (n = 8 with ^68Ga-DOTATOC; n = 4 with ^68Ga-DOTANOC and n = 4 with ^68Ga-DOTATATE). Half of the animals imaged with ^68Ga-DOTATOC were also imaged with the other two radiotracers in alternate days with respect to ^68Ga-DOTATOC (Figure 1). Overall, n values for the PET study were: 27 for ^68Ga-DOTATOC, 20 for ^68Ga-DOTANOC and 21 for ^68Ga-DOTATATE.
The tracers (^68Ga-DOTATOC, ^68Ga-DOTANOC, or ^68Ga-DOTATATE) were injected into the tail vein (mean, 11.47 MBq; range, 9.25–20.35 MBq) and a dynamic study centered in the tumor was acquired for 90.3 minutes (112 frames: 20×10 s, 10×30 s, and 82×60 s). Frames corresponding to the last 60 minutes of the study were summed to form a static image. Images were reconstructed using the 2D–OSEM (Ordered Subset Expectation Maximization) algorithm (16 subsets and two iterations), which yields a spatial resolution for this scanner of 1.45 mm Full Width at Half Maximum (FWHM), with a voxel size of 0.3875×0.3875×0.7750 mm^3. […]
Tumor, muscle, and liver SUVmax values at 30–90 minutes post-injection were recorded. […]

[2] = system: xenografts of a human meningioma cell line (CH-157MN); test: Dynamic PET study: volume of distribution (Vt) by Logan graphical analysis; format: in vivo, NUDE NU/NU mice; details: comparison between radiotracers
Method: as §1
The tracers (^68Ga-DOTATOC, ^68Ga-DOTANOC, or ^68Ga-DOTATATE) were injected into the tail vein (mean, 11.47 MBq; range, 9.25–20.35 MBq) and a dynamic study centered in the tumor was acquired for 90.3 minutes (112 frames: 20×10 s, 10×30 s, and 82×60 s). Frames corresponding to the last 60 minutes of the study were summed to form a static image. […]
Vt was calculated from dynamic PET data using standard Logan graphical analysis for a two-tissue reversible compartmental model. […]

Q: For “^68Ga-DOTA-Nal^3-octreotide [^68Ga-DOTANOC]”, which “SUVmax liver (liver uptake)” value ([1]; 30-90 minutes post-injection, tail vein, ANOVA p<0.001) is on record?
A: Its value is “higher uptake than ^68Ga-DOTATOC or ^68Ga-DOTATATE”.

Q: And the “T/L SUV ratio (tumor-to-liver)” value ([1]; SUVmax of tumor normalized to SUVmax of liver, p<0.001)?
A: Its value is “lower uptake than ^68Ga-DOTATOC and ^68Ga-DOTATATE”.

Q: What about the “Vt liver (hepatic)” value [2] of the same substance?
A: Its value is “significantly higher with ^68Ga-DOTANOC than with ^68Ga-DOTATOC and ^68Ga-DOTATATE”.

Q: What about the Vt tumor ([2]; two-tissue reversible compartmental model) of the same substance?
A: The Vt tumor was “lower for ^68Ga-DOTANOC than for the other two tracers”.
